Experimental data from patent US8614235B2, “CAI-based systems and methods for the localized treatment of ocular and other diseases” (RFE Pharma LLC, priority 2004, dated 2013).

Experiment: Ocular delivery of dexamethasone after periocular injection
Conditions: single 5 mg peribulbar injection; assuming a vitreous volume of 4-5 ml

C[C@@H]1C[C@H]2[C@@H]3CCC4=CC(=O)C=C[C@]4(C)[C@@]3(F)[C@@H](O)C[C@]2(C)[C@@]1(O)C(=O)CO [Dexamethasone]
vitreous concentration: 0.10 to 0.13 µM
